Values quoted from earlier work as cited in US12102629B1, “Intranasal composition of pharmaceutical countermeasures for chemical warfare nerve agents and accidental exposure to organophosphate pesticides” (dated 2024).

Assays:
[1] = injectable drug, after 4 weeks of heat exposure
[2] = intranasal epinephrine solution with 1% taurodeoxycholic acid
[3] = used as mucosal permeation enhancer, 1% solution, intranasal

Compound: CN1[C@@H]2CC[C@H]1C[C@@H](OC(=O)C(CO)c1ccccc1)C2 (stereo partly drawn)
- degradation after heat exposure [1]: undetectable

Compound: CNC[C@H](O)c1ccc(O)c(O)c1
- absolute bioavailability [2]: quite low

Compound: C[C@H](CCC(=O)NCCS(=O)(=O)O)[C@H]1CC[C@H]2[C@@H]3CC[C@@H]4C[C@H](O)CC[C@]4(C)[C@H]3C[C@H](O)[C@]12C
- nasal mucosal tissue damage [3]: severe nasal mucosal tissue damage
